{"sequences": {"note": "Protein sequences, listed by entry. Tags and fused reporters are not part of them.", "UniProt P23977, whole entry": "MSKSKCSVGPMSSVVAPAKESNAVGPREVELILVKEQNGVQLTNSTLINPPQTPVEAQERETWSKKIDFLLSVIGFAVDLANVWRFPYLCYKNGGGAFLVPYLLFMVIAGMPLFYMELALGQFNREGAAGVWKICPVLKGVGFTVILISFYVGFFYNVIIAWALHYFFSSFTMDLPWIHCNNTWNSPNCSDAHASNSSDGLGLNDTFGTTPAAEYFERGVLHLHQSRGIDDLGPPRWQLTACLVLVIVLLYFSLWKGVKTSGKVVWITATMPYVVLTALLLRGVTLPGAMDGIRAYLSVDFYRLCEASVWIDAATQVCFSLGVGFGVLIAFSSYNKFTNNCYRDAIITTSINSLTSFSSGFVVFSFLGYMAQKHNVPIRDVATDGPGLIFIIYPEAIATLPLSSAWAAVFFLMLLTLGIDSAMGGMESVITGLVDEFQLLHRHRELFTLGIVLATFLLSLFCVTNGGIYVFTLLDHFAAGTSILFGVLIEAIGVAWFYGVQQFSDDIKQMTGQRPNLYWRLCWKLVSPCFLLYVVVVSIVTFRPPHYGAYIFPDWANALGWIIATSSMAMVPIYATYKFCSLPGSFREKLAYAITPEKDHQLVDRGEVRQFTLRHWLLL"}, "source": "paper PMC4297708", "about": "(Drug and alcohol dependence, 2014)", "biological_target": "dopamine transporter (DAT) (Rattus norvegicus, UniProt P23977)", "test": "biochemical"}
{"smiles": "C[C@H](N)C(=O)c1ccccc1", "note": "[Cathinone]", "values": [{"measurement": "EC50", "result": "83.1 ± 9", "unit": "nM"}]}
